Values quoted from earlier work, collected in patent publication US20100278751A1, “RADIOLABELED 2-AMINO-4-ALKYL-6-(HALOALKYL)PYRIDINE COMPOUNDS AND THEIR USE IN DIAGNOSTIC IMAGING” (WASHINGTON UNIVERSITY, priority 2009, published 2010).

Molecular target: iNOS (Homo sapiens, UniProt P35228)
Details: reported value for standards; cited from earlier work

## L-N^6-iminoethyl-lysine [L-NIL, reference compound]
  IC50: 1.4 µM
